From ChEMBL document CHEMBL4765433, “From methylene bridged diindole to carbonyl linked benzimidazoleindole: Development of potent and metabolically stable PCSK9 modulators” (Eur J Med Chem, 2020)
Some compounds may have been tested in ways that are not shown here.

System: HepG2
Test: Cytotoxicity against human HepG2 cells assessed as reduction in cell viability at <=10 uM by MTT assay
Assay type: cell-based

Fc1ccc2nc(Cc3c[nH]c4c(F)cccc34)n(CCN3CCOCC3)c2c1
Activity: Non-Toxic
